Data published in patent US11180452B2, “Methods and compositions for selectively inhibiting pathogenic microbes” (priority 2019, dated 2021).

System: branched chain amino acid synthesis pathway gene ILVB
Experiment: RNA sequencing / transcriptomic and metabolic studies

SMILES | mechanism of action by transcriptomic and metabolic studies
Brc1ccc2[nH]cc(Sc3ccccc3Br)c2c1 [Compound 174I, 5-bromo-3-((2-bromophenyl)thio)-1H-indole] | branched chain amino acid biosynthesis inhibition
Nc1ccccc1Sc1c[nH]c2ccc(Br)cc12 [Compound 174M, 2-((5-bromo-1H-indol-3-yl)thio)aniline] | branched chain amino acid biosynthesis inhibition
